Earlier results on one sequence are cited in patent US20260139007A1, “EPHA4 ANTAGONISTS AND USES THEREOF” (SANFORD BURNHAM PREBYS MEDICAL DISCOVERY INSTITUTE, priority 2023, published 2026).

Amino acid sequences for entries named in this document (tags omitted). Residues count along the entry.
UniProt P02768, 25-609: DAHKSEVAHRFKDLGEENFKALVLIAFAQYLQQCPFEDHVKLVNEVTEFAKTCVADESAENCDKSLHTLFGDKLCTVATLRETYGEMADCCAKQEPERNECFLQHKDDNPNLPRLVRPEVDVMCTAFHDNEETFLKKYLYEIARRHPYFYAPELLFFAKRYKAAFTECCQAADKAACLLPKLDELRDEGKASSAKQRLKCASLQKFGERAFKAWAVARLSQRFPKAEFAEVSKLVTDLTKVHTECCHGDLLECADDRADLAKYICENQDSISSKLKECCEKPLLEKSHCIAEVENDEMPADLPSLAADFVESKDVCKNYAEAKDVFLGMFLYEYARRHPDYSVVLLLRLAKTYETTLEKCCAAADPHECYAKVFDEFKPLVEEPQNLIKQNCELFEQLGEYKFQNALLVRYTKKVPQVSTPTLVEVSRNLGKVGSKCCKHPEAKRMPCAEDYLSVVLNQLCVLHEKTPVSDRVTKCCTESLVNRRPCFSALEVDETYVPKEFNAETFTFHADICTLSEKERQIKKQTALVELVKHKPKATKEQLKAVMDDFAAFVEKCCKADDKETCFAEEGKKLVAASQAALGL

For orientation: Kd means the constant that tells how readily two partners part at equilibrium.

In this series the target is human serum albumin (Homo sapiens, UniProt P02768). Conditions: cited from earlier work.

RLIEDICLPRWGCLWEDD [SA21]: the dissociation constant (Kd) is 470 nM.
